Our source for the EC50 values is article PMC4481117 (Molecular Pain, 2015).

This experiment has as its target T1, Mac-1 (Mac-1-expressing HEK293 cells) (Homo sapiens, UniProt P05107+P11215).
T1 construct: expressed in transfected cells
In words: Adhesion of Mac-1-HEK293 cells to immobilized peptide. It counts as cell-based. Here is the method: Fig. 3 Adhesion of Mac-1-expressing cells to Dyn A and Dyn B. a, Mac-1-expressing and wild-type HEK293 cells were labeled with calcein and 5x10^4 cells were added to the wells coated with different concentrations of the Dyn A. After 30 min at 37 °C, nonadherent cells were removed and fluorescence was measured. The data shown are means of triplicate determinations, and error bars represent S.E. The figure is representative of 8 experiments. b , adhesion of HEK293 cells expressing Mac-1, LFA and the I-less form of Mac-1 to Dyn A and Dyn B immobilized at 10 μM was determined as described in A. c, calcein-labeled Mac-1-HEK293 cells were preincubated without or with 10 μg/ml of anti-αM mAb 44a or 1 μg/ml NIF for 15 minutes. For testing the role of glucosaminoglycans in cell adhesion, dynorphin A-coated wells were preincubated with 100 μl of 10 μg/ml of chondroitin sulfate A, chondroitin sulfate B and heparin. […]
Adhesion assays were performed essentially as described previously. […] Fluorescence was measured in a CytoFluorII fluorescence plate reader (Perceptive Biosystems, Framingham, MA). […] After aspirating the solution, labeled cells were added and cell adhesion was analyzed as above.

Consider `CC(C)C[C@H](NC(=O)[C@H](Cc1ccccc1)NC(=O)CNC(=O)CNC(=O)[C@@H](N)Cc1ccc(O)cc1)C(=O)N[C@@H](CCCN=C(N)N)C(=O)N[C@@H](CCCN=C(N)N)C(=O)N[C@@H](CCC(N)=O)C(=O)N[C@@H](Cc1ccccc1)C(=O)N[C@@H](CCCCN)C(=O)N[C@H](C(=O)N[C@H](C(=O)N[C@H](C(=O)O)[C@@H](C)O)C(C)C)C(C)C` [Dyn B], for which the EC50 (in general, the concentration at which the effect is half-maximal) was about 7.5 µM.
